Read-outs that look alike come from different tables or passages of the source.
Biological target: NMDA receptors
Assay: 3H-MK801 (Dizocilpine) binding in vitro
Settings: rat whole brain membranes, 5nM 3H-MK-801, glutamate, glycine and spermidine present
Description: 3H-MK801 (Dizocilpine) binding in vitro
The whole brain from 150-200g male rats, without cerebellum and without medulla oblongata was dissected on ice. The tissue was then homogenized with an Ultra-Turrax maximum speed during 30 seconds at 4°C in 50 volumes of cold Tris HCI 50mM, EDTA disodium 10mM, pH=7.4 buffer (wet weight/v). The homogenate was centrifuged at 48'000 x g (20'000 rpm, SS34, Sorvall RC5C) for 10 minutes. The pellet was rehomogenized with the same volume of buffer and the homogenate incubated at 37°C for 10 minutes. […]
The incubation was performed in the presence of 1nM glutamate, glycine and spermidine. […] Non specific binding was determined in presence of 100mM TCP. […] The air-dried filters were counted with 10ml of Ultima-gold (Packard) in a Tri-Carb 2500 TR scintillation counter after agitation.
The DPM were transformed in % of specific binding and these values were treated by a non linear regression calculation program (BINDING, H. Affolter, Switzerland) which provided the IC50 values for the low and high affinity binding sites (= concentrations producing half maximal inhibition at the respective sites). Each experiment was repeated at least three times and the final IC50 values were calculated as the mean +/-standard deviation of the individual experiments. […]

IC50 (high affinity binding site, read-out: 3H-MK 801 / IC50 (µM) high): 0.6 µM | IC50 (low affinity binding site, read-out: 3H-MK 801 / IC50 (µM) low): 107 µM
Structure (SMILES): COc1cc2c(cc1OC)C(CCc1ccc(Cl)cc1)N(C)CC2 (centres unmarked) [J]
